Data on 77 molecules can be found in PubChem BioAssay AID651719 (The Scripps Research Institute Molecular Screening Center, 2012).

The chains behind the UniProt entries cited, without tags or fusion partners. Residues count along the entry.
UniProt O60755, 1-299 limits assumed: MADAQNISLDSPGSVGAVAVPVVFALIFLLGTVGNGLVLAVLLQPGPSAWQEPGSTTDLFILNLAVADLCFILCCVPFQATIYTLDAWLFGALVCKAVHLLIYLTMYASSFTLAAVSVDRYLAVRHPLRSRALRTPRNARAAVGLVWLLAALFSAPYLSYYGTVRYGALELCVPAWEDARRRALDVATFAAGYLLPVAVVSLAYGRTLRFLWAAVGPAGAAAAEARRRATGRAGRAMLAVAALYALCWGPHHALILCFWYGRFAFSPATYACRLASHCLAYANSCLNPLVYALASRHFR

This is a selection; strong and weak results do not stand in their true shares. Some salts and complexes are drawn in separate pieces, as the source files them; their charges need not balance. The source made the active and inactive calls.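 How the source made its calls: active means inhibition above the screen-wide average plus 3 SD (cut at about 13% in these data); inactive means the rest.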

The inhibition is the change of the read-out against control, counted positive when it falls.

This assay concerns the target Galanin receptor type 3 (Homo sapiens) (UniProt O60755). Kind of assay: GalR3 antagonists in HEK293 cells, primary screen, cell-based, fluorescence readout (AID 651719).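 Further: forskolin and galanin both at EC90 stimulate the cells; cAMP rise reported by CNG channel membrane potential dye signal; 0% = forskolin plus galanin with DMSO and 100% = forskolin alone.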 The following applies: HEK293 GalR3-CNG cAMP membrane potential fluorescence; at 3 µM; active compounds read high; galR3 body fused to GalR1 C-terminus.
For the molecule `Cc1cccc(C)c1OP(C)(N)=O` (configuration not stated), the inhibition is inactive: 0.73%.

As for `COc1ccccc1OP(C)(=O)Nc1ccc(C)cc1` (configuration not stated), the inhibition was inactive: 0.12%.

As to `Cc1ccc(NP(C)(=O)Oc2ccccc2)c(C)c1` (configuration not stated), the inhibition is inactive: -5.19%.

With `CCOC(=O)c1ccc(NP(C)(=O)Oc2ccccc2)cc1` (configuration not stated), the inhibition was inactive: 1.66%.

Take `Cc1cc(C)cc(OP(C)(N)=O)c1` (configuration not stated): the inhibition is inactive: -5.58%.

Consider `COc1ccccc1OP(C)(=O)Nc1cc(Cl)ccc1C` (configuration not stated), for which the inhibition was inactive: 0.13%.

On to `COc1ccc(OP(C)(=O)Nc2cccc(F)c2)cc1` (configuration not stated), for which the inhibition is inactive: -8.01%.

Turning to `CCN(CC)CCCOC(=O)C(O)(c1ccccc1)c1ccccc1`, the inhibition is active: 20%.

In the case of `COc1ccccc1-c1ccccn1.O=[N+]([O-])c1cc([N+](=O)[O-])c(O)c([N+](=O)[O-])c1`, the inhibition is inactive: -6.2%.

In the case of `Cc1cccc(C)c1OP(C)(=O)Nc1ccc(SC(F)(F)F)cc1` (configuration not stated), the inhibition is inactive: -3.38%.

As to `CP(=O)(Nc1ccc(SC(F)(F)F)cc1)Oc1ccc(Cl)cc1` (configuration not stated), the inhibition was inactive: -6.8%.

Take `CP(=O)(Oc1ccccc1)OC(c1ccccc1)C(F)(F)F` (configuration not stated): the inhibition is inactive: -8.43%.

On to `CCc1ccc(OP(C)(=O)N2CCN(c3ccc([N+](=O)[O-])cc3)CC2)cc1` (configuration not stated), for which the inhibition is inactive: -5.67%.

Consider `CP(=O)(NC(=O)Nc1ccccc1)Oc1ccccc1` (configuration not stated), for which the inhibition was inactive: -0.79%.

Consider `Cc1cc(C)cc(OP(C)(=O)Nc2ccc(SC(F)(F)F)cc2)c1` (configuration not stated), for which the inhibition was inactive: 0.4%.

As for `CCOC(=O)c1ccc(NP(C)(=O)Oc2ccc(OC)cc2)cc1` (configuration not stated), the inhibition is inactive: 0.73%.

For the molecule `O=[N+]([O-])c1cc([N+](=O)[O-])c(O)c([N+](=O)[O-])c1.c1ccc(Oc2ccncc2)cc1`, the inhibition was inactive: -1.23%.

Turning to `CCOP(C)(=S)SCC(=O)NC(C)C(=O)O` (configuration not stated), the inhibition was inactive: -1.6%.

In the case of `CP(=O)(Nc1ccccn1)Oc1ccc(Cl)cc1` (configuration not stated), the inhibition was inactive: -3.93%.

On to `CP(=S)(Nn1cnnc1)Oc1ccccc1` (configuration not stated), for which the inhibition was inactive: -1.93%.

With `CP(=O)(Nc1ccccc1Br)Oc1ccccc1` (configuration not stated), the inhibition is inactive: 0.71%.

Take `COc1ccccc1OP(C)(=O)Nc1ccccc1` (configuration not stated): the inhibition is inactive: -3.71%.

On to `Nc1ccc2c(ccc3cccnc32)n1.O=[N+]([O-])c1cc([N+](=O)[O-])c(O)c([N+](=O)[O-])c1`, for which the inhibition is inactive: -3.99%.

In the case of `CCOC(=O)c1ccc(NP(C)(=O)Oc2ccc(Cl)cc2)cc1` (configuration not stated), the inhibition is inactive: -0.57%.

`CP(=O)(OC12CC3CC(CC(C3)C1)C2)OC12CC3CC(CC(C3)C1)C2`: the inhibition is inactive: -4.64%.

On to `CCN(CC)CC(O)COC(=O)C(O)(c1ccccc1)C1CCCCC1` (configuration not stated), for which the inhibition was inactive: 1.05%.

On to `COc1ccc(OP(C)(=O)Nc2ccc(Br)cc2)cc1` (configuration not stated), for which the inhibition is inactive: -9.46%.

With `COc1ccccc1OP(C)(=O)Nc1c(C)n(C)n(-c2ccccc2)c1=O` (configuration not stated), the inhibition is inactive: -1.05%.

Regarding `O=C(OCCCN1CCCC1)C(O)(c1ccccc1)C1CCCCC1` (configuration not stated), the inhibition was inactive: -7.69%.

As for `CP(=O)(Oc1ccccc1)N1CCOC1=O` (configuration not stated), the inhibition is inactive: 0.74%.

As for `CCc1ccc(OP(C)(=O)Nc2cccnc2)cc1` (configuration not stated), the inhibition is inactive: 1.43%.

`CC(C)(C)c1ccc(OP(C)(=O)O)cc1`: the inhibition is inactive: -3.18%.

With `COc1ccccc1OP(C)(=O)Nc1ccccc1Br` (configuration not stated), the inhibition is inactive: -5.29%.

For the molecule `CP(=O)(Nc1ccc(Cl)cc1)Oc1ccc(F)cc1` (configuration not stated), the inhibition is inactive: -3.63%.

For `CN(C)C(=O)c1c([N+](=O)[O-])cc([N+](=O)[O-])cc1[N+](=O)[O-]`, the inhibition was inactive: -3.58%.

As to `COc1ccccc1OP(C)(=O)Nc1ccc(Br)cc1` (configuration not stated), the inhibition is inactive: 4.1%.

`COc1ccc(OP(C)(=O)Nc2ccccn2)cc1` (configuration not stated): the inhibition is inactive: -1.27%.

On to `CN(C)CCOC(=O)C(O)(c1ccccc1)C1CCCC1` (configuration not stated), for which the inhibition is inactive: -4.16%.

Consider `O=[N+]([O-])c1cc([N+](=O)[O-])c(Nc2ccccn2)c([N+](=O)[O-])c1`, for which the inhibition is inactive: -5.99%.

For the molecule `Cc1c(NP(C)(=O)Oc2ccc(C(C)C)cc2)c(=O)n(-c2ccccc2)n1C` (configuration not stated), the inhibition was inactive: -6.8%.

For the molecule `CP(=O)(Nc1ccccn1)Oc1ccccc1` (configuration not stated), the inhibition is inactive: -4.16%.

As to `COc1ccccc1OP(C)(=O)Nc1ccc(C)cc1C` (configuration not stated), the inhibition is inactive: 3.9%.

As to `CCc1ccc(OP(C)(=O)O)cc1`, the inhibition was inactive: 0.7%.

As for `O=C1C(O)=C([N+](=O)[O-])C(=O)C(O)=C1[N+](=O)[O-]`, the inhibition is inactive: -3.47%.

Regarding `Cc1cc(C)cc(OP(C)(=O)Nc2cccc(C(F)(F)F)c2)c1` (configuration not stated), the inhibition is inactive: -9.5%.

`COc1ccccc1OP(C)(=O)Nc1ccc(C)c(C)c1` (configuration not stated): the inhibition is inactive: -0.86%.

With `COc1ccc(OP(C)(=O)Nc2ccccc2Br)cc1` (configuration not stated), the inhibition was inactive: 0.8%.

On to `CP(=O)(OCCOc1ccccc1)OCCOc1ccccc1`, for which the inhibition was inactive: -6.33%.

Turning to `CCCCCCCCCCCCCCCC1C[N+](C)(C)CCOP(C)(=O)O1` (configuration not stated), the inhibition is inactive: -5.58%.

As for `CP(=O)(Nc1ccc(Cl)cc1Cl)Oc1ccccc1` (configuration not stated), the inhibition is inactive: -0.77%.

For `CCN(CC)CCCNc1ccccc1[N+](=O)[O-].O=[N+]([O-])c1cc([N+](=O)[O-])c(O)c([N+](=O)[O-])c1`, the inhibition was inactive: -6.81%.

As for `CCOC(=O)c1ccc(NP(C)(=O)Oc2ccc(F)cc2)cc1` (configuration not stated), the inhibition was inactive: 1.92%.

In the case of `COc1ccc(OP(C)(=O)Nc2ccc(SC(F)(F)F)cc2)cc1` (configuration not stated), the inhibition is inactive: -6.61%.

For the molecule `Cc1c([N+](=O)[O-])cc([N+](=O)[O-])c(Br)c1[N+](=O)[O-]`, the inhibition is inactive: -6.19%.

For the molecule `CCN(CC)CCCOC(=O)C(O)(c1ccccc1)C1CCCCC1` (configuration not stated), the inhibition was inactive: 3.84%.

Turning to `CP(=O)(Nc1ccccc1)Oc1ccc(F)cc1` (configuration not stated), the inhibition is inactive: 5.94%.

Take `CCCCCOc1ccc(NP(C)(=O)Oc2ccc(Cl)cc2Cl)cc1` (configuration not stated): the inhibition was inactive: -5.65%.

For the molecule `O=[N+]([O-])c1cc([N+](=O)[O-])c(OC2CCCCC2O)c([N+](=O)[O-])c1` (configuration not stated), the inhibition was inactive: -9.55%.

As to `O=[N+]([O-])c1cc([N+](=O)[O-])c(Nc2ccc(Cl)cc2)c([N+](=O)[O-])c1`, the inhibition was active: 57.1%.

In the case of `CP(=O)(Nc1ccccc1F)Oc1ccccc1` (configuration not stated), the inhibition is inactive: 1.7%.

As to `CC(C)c1ccc(OP(C)(=O)Nc2ccc(SC(F)(F)F)cc2)cc1` (configuration not stated), the inhibition is inactive: -5.45%.

Regarding `O=C(OC1CN2CCC1CC2)c1ccc([N+](=O)[O-])cc1` (configuration not stated), the inhibition is inactive: -0.24%.

On to `O=C(OCCN1CCN(CCOCc2ccccc2)CC1)C(O)(c1ccccc1)c1ccccc1`, for which the inhibition was inactive: -5.87%.

For the molecule `COc1ccc2c(c1O)-c1c(O)c(OC)cc3c1[C@H](C2)[N+](C)(C)CC3.O=[N+]([O-])c1cc([N+](=O)[O-])c([O-])c([N+](=O)[O-])c1[O-]`, the inhibition was inactive: -2.96%.

Regarding `CP(=O)(Nc1ccc(SC(F)(F)F)cc1)Oc1ccc(F)cc1` (configuration not stated), the inhibition is inactive: -7.82%.

With `CCOP(C)(=S)SCC(=O)NC(C)(CC)C(=O)O` (configuration not stated), the inhibition is inactive: -5.22%.

Take `CCOP(=O)(CC)OCC`: the inhibition is inactive: 0.7%.

Turning to `CP(=O)(Nc1ccc2c(c1)OCCO2)Oc1ccccc1` (configuration not stated), the inhibition is inactive: 0.72%.

For `Cc1ccccc1NP(C)(=O)Nc1ccccc1C`, the inhibition was inactive: -1.2%.

In the case of `O=[N+]([O-])c1cc([N+](=O)[O-])c(C(F)(F)F)c([N+](=O)[O-])c1O`, the inhibition was inactive: -2%.

Turning to `COc1ccc(OP(C)(=O)Nc2cccc(Br)c2)cc1` (configuration not stated), the inhibition was inactive: -3%.

With `CN(C)CCOC(=O)C(O)(c1ccccc1)C1CCCCC1` (configuration not stated), the inhibition was inactive: -5.44%.

Take `COc1ccc(NP(C)(=O)Oc2ccccc2OC)cc1` (configuration not stated): the inhibition was inactive: 3.04%.

Consider `O=[N+]([O-])c1ccc(OP2(=O)COCCO2)cc1` (configuration not stated), for which the inhibition is inactive: -9.34%.

As to `O=[N+]([O-])c1cc([N+](=O)[O-])c(NCC2CCS(=O)(=O)C2)c([N+](=O)[O-])c1` (configuration not stated), the inhibition was inactive: -5.84%.

For `Cc1cc(-c2cccc3ccccc23)c(C)cn1.O=[N+]([O-])c1cc([N+](=O)[O-])c(O)c([N+](=O)[O-])c1`, the inhibition is inactive: -6.43%.

As to `Cc1c(C(c2ccc3c(c2)OCO3)c2c(C)n(C)n(-c3ccccc3)c2=O)c(=O)n(-c2ccccc2)n1C.O=[N+]([O-])c1cc([N+](=O)[O-])c(O)c([N+](=O)[O-])c1`, the inhibition was inactive: -4.33%.
